Values of other authors in US7914763B1, “Process and apparatus for preparing manganese thiosulfate (MnTS) solution” (Tessenderlo Kerley, Inc., priority 2010, dated 2011).

Conditions: pH of the compound as Mn plant nutrient source in water; cited from earlier work

Substance: manganese chloride [MnCl2]
- respective pH: 6.9
